These are literature values, as cited in US20230181690A1, “METHODS FOR TREATING ANEMIA USING AN ACTRIIB LIGAND TRAP AND FEDRATINIB” (Celgene Corporation, priority 2020, published 2023).

Series [1] has as its system cell models expressing mutationally active JAK2 or FLT3.
Series [2] concerns JAK2V617F-driven myeloproliferative disease. The conditions noted are these: mouse models.

`Cc1cnc(Nc2ccc(OCCN3CCCC3)cc2)nc1Nc1cccc(S(=O)(=O)NC(C)(C)C)c1` [fedratinib, N-tert-butyl-3-[(5-methyl-2-{4-[2-(pyrrolidin-1-yl)ethoxy]anilino}pyrimidin-4-yl)amino]benzenesulfonamide]: in series [1], the apoptotic cell death entry is listed as “induced apoptotic cell death”. Also, the survival entry in series [2] was “increased survival”.
